Earlier results on one substance are cited in patent US20100255118A1, “ORAL ZINC MEDICANTS USEFUL FOR SAFELY LOWERING FREE COPPER ABSORPTION AND FREE COPPER LEVELS” (priority 2007, published 2010).

For this series the following is noted: infants at one month of age, supplemented with 80 μg Cu/kg daily for 15 days, oral.

copper sulfate: the “Mean (+SD) copper absorption” value is listed as 74.8+15.2%.
